Earlier results in patent publication US20160034667A1, “TAILORED DRUG THERAPIES AND METHODS AND SYSTEMS FOR DEVELOPING SAME” (COMPANION DX REFERENCE LAB, LLC, priority 2014, published 2016).

What was measured:
[1] = system: advanced NSCLC with ALK rearrangements
[2] = system: NSCLC patients having EGFR mutation; settings: FIG. 8 (B)
[3] = system: NSCLC patients with drug-sensitive EGFR mutations

SMILES | adverse effect ([1]; a few patients) | response rates ([1]; advanced NSCLC, ALK rearrangements, progressed on previous therapy) [%] | extension of life expediency on average over that of the standard chemotherapy [2] [months] | response in patients with drug-sensitive EGFR mutations at Exon 19 and 21 [3]
C[C@@H](Oc1cc(-c2cnn(C3CCNCC3)c2)cnc1N)c1c(Cl)ccc(F)c1Cl [crizotonib, Crizotinib] | life-threatening pneumonitis | > 60 | – | –
COc1cc2ncnc(Nc3ccc(F)c(Cl)c3)c2cc1OCCCN1CCOCC1 [gefitinib, Gefitinib] | – | – | 5.4 | significantly better response
